The series is described as follows: In vitro dissolution of naltrexone or fentanyl coaxial PCL implants. The settings on record: 10 wt % fentanyl base in the core, PCL membrane; as concentration in the core falls below saturation; FIG. 4.

The record followed here is US8263108B2, “Zero-order prolonged release coaxial implants” (Durect Corporation, priority 2001, dated 2012).

This is a selection: effects in other tests are not listed, and their absence says nothing.

As to `CCC(=O)N(c1ccccc1)C1CCN(CCc2ccccc2)CC1`, the “release kinetics of fentanyl from coaxial implants” value is “becomes first order”.
